Assay [1] deals with T1, Aurora A (Homo sapiens, UniProt O14965).
T1 sequence (O14965 1-403): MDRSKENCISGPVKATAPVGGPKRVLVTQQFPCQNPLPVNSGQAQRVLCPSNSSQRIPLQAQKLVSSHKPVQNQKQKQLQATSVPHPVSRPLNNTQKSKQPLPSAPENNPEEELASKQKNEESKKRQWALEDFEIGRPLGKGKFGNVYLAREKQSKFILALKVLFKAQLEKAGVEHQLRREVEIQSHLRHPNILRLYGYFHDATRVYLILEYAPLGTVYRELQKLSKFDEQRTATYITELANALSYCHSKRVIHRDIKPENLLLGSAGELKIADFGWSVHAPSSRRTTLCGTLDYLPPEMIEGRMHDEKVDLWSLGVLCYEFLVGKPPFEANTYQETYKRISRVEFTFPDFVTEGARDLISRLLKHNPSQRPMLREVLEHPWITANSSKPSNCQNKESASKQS
In words: Activation of Aurora A by TPX2^1–43 under kinase reaction conditions. Particulars: read-out: Concentration required to achieve half-maximal activation of Aurora A; kinase reaction conditions of the Aurora A/TPX2^1–43 assay.

Assay [2] concerns the target T1, Aurora A. The arrangement: purified full-length human Aurora A (Millipore); purchased Millipore. Particulars: previously reported; read-out: Kd of TPX2^1–43; cited from earlier work.

On to `CC[C@H](C)[C@H](NC(=O)[C@H](Cc1ccccc1)NC(=O)[C@H](CC(=O)O)NC(=O)[C@H](CO)NC(=O)[C@@H]1CCCN1C(=O)[C@H](C)NC(=O)[C@H](CC(=O)O)NC(=O)[C@H](Cc1ccc(O)cc1)NC(=O)[C@H](CO)NC(=O)[C@H](Cc1ccc(O)cc1)NC(=O)[C@H](CO)NC(=O)[C@H](CO)NC(=O)[C@H](CCCCN)NC(=O)[C@@H](NC(=O)[C@H](CCC(N)=O)NC(=O)[C@H](CO)NC(=O)[C@@H](N)CCSC)C(C)C)C(=O)N[C@@H](CC(N)=O)C(=O)N[C@@H](Cc1ccccc1)C(=O)N[C@@H](CO)C(=O)N[C@@H](CO)C(=O)N[C@@H](CC(C)C)C(=O)N[C@@H](CC(=O)O)C(=O)N[C@@H](CC(=O)O)C(=O)N[C@@H](CCC(=O)O)C(=O)NCC(=O)N[C@@H](CC(=O)O)C(=O)N[C@H](C(=O)N[C@@H](CCC(N)=O)C(=O)N[C@@H](CC(N)=O)C(=O)N[C@H](C(=O)N[C@@H](CC(=O)O)C(=O)N[C@@H](CO)C(=O)N[C@@H](Cc1c[nH]c2ccccc12)C(=O)N[C@@H](Cc1ccccc1)C(=O)N[C@@H](CCC(=O)O)C(=O)N[C@@H](CCC(=O)O)C(=O)N[C@@H](CCCCN)C(=O)N[C@@H](C)C(=O)N[C@@H](CC(N)=O)C(=O)N[C@@H](CC(C)C)C(=O)N[C@@H](CCC(=O)O)C(=O)N[C@@H](CC(N)=O)C(=O)O)[C@@H](C)CC)[C@@H](C)O` [TPX2^1–43], for which the EC50 in assay [1] was 3 nM. In addition, in assay [2], the Kd was 2.3 nM.
